Experimental data: patent US20260382772A1, “KETO-AMIDE-BASED FIBROBLAST ACTIVATION PROTEIN-TARGETED LIGAND LINKED TO AN IMAGING OR THERAPEUTIC AGENT, COMPOSITIONS, AND METHODS OF USE” (published 2026)

Tested on: 4T1 tumor bearing mice
Assay: Dosimetry analysis using OLINDA software, 4T1 tumor
Conditions: ^111In
Protocol: From the ex vivo biodistribution data obtained from the ^111In/^177Lu-FAP8-PEG3-IP-DOTA in 4T1 and HEK-FAP tumor bearing mice, the total absorbed radiation dose coefficients (mGy/MBq were calculated using OLINDA 2.2.3 software (Tables 9-12).
FIGS. 36A and 36B show comparison data related to the total absorbed dose coefficient in selected organs (blood, heart, lungs, liver, spleen, kidney's bone marrow, and tumor). Dose estimates for healthy organs such as blood, heart, lungs, liver, spleen, kidneys, and bone marrow were calculated assuming a 25 g mouse phantom, whereas for tumor dose estimates were calculated with the sphere model. Time-activity curves were fitted to the biodistribution data of each organ individually with exponential functions.

COc1ccc(CNC(=O)C(=O)[C@@H]2CC(F)(F)CN2C(=O)CNC(=O)c2ccnc3ccc(OCC(=O)NCCOCCOCCOCCNC(=O)[C@H](CCCCNC(=O)CCCc4ccc(I)cc4)NC(=O)CN4CCN(CC(=O)O)CCN(CC(=O)O)CCN(CC(=O)O)CC4)cc23)cc1OC.[In+3]
Kinetics value, Blood (1.0 nmol/mouse): 8.56E−1 MBq-h/MBq | Kinetics value, Bone Marrow (1.0 nmol/mouse): 3.25E−02 MBq-h/MBq | Kinetics value, Heart (1.0 nmol/mouse): 1.98E−1 MBq-h/MBq | Kinetics value, Intestines (1.0 nmol/mouse): 1.95E−1 MBq-h/MBq | Kinetics value, Kidneys (1.0 nmol/mouse): 4.49E−01 MBq-h/MBq | Kinetics value, Liver (1.0 nmol/mouse): 2.02E0 MBq-h/MBq | Kinetics value, Lung (1.0 nmol/mouse): 1.74E−1 MBq-h/MBq | Kinetics value, Spleen (1.0 nmol/mouse): 4.85E−1 MBq-h/MBq | Kinetics value, Stomach (1.0 nmol/mouse): 1.35E−1 MBq-h/MBq | Kinetics value, Tumor (1.0 nmol/mouse): 4.13E0 MBq-h/MBq | Organ doses, Blood (1.0 nmol/mouse): 1.01E02 mGy/MBq | Organ doses, Bone Marrow (1.0 nmol/mouse): 1.09E01 mGy/MBq | Organ doses, Heart (1.0 nmol/mouse): 4.00E01 mGy/MBq | Organ doses, Intestines (1.0 nmol/mouse): 3.16E01 mGy/MBq | Organ doses, Kidneys (1.0 nmol/mouse): 4.74E01 mGy/MBq | Organ doses, Liver (1.0 nmol/mouse): 7.70E01 mGy/MBq | Organ doses, Lung (1.0 nmol/mouse): 2.11E01 mGy/MBq | Organ doses, Spleen (1.0 nmol/mouse): 2.83E01 mGy/MBq | Organ doses, Stomach (1.0 nmol/mouse): 1.76E01 mGy/MBq | Organ doses, Tumor (1.0 nmol/mouse): 2.01E02 mGy/MBq | Kinetics value, Blood (2.5 nmol/mouse): 5.86E−1 MBq-h/MBq | Kinetics value, Bone Marrow (2.5 nmol/mouse): 5.12E−2 MBq-h/MBq | Kinetics value, Heart (2.5 nmol/mouse): 1.82E−1 MBq-h/MBq | Kinetics value, Intestines (2.5 nmol/mouse): 1.81E−1 MBq-h/MBq | Kinetics value, Liver (2.5 nmol/mouse): 2.09E0 MBq-h/MBq | Kinetics value, Lung (2.5 nmol/mouse): 5.80E−1 MBq-h/MBq | Kinetics value, Spleen (2.5 nmol/mouse): 8.16E−1 MBq-h/MBq | Kinetics value, Stomach (2.5 nmol/mouse): 1.41E−1 MBq-h/MBq | Kinetics value, Tumor (2.5 nmol/mouse): 4.13E0 MBq-h/MBq | Organ doses, Blood (2.5 nmol/mouse): 1.08E02 mGy/MBq | Organ doses, Bone Marrow (2.5 nmol/mouse): 4.18E01 mGy/MBq | Organ doses, Heart (2.5 nmol/mouse): 4.14E01 mGy/MBq | Organ doses, Intestines (2.5 nmol/mouse): 4.36E01 mGy/MBq | Organ doses, Kidneys (2.5 nmol/mouse): 1.49E02 mGy/MBq | Organ doses, Liver (2.5 nmol/mouse): 9.44E01 mGy/MBq | Organ doses, Lung (2.5 nmol/mouse): 4.09E01 mGy/MBq | Organ doses, Spleen (2.5 nmol/mouse): 5.03E01 mGy/MBq | Organ doses, Stomach (2.5 nmol/mouse): 1.82E01 mGy/MBq | Organ doses, Tumor (2.5 nmol/mouse): 1.74E02 mGy/MBq | Kinetics value, Blood (5.0 nmol/mouse): 6.94E−1 MBq-h/MBq | Kinetics value, Bone Marrow (5.0 nmol/mouse): 4.27E−2 MBq-h/MBq | Kinetics value, Heart (5.0 nmol/mouse): 8.78E−2 MBq-h/MBq | Kinetics value, Intestines (5.0 nmol/mouse): 1.09E−1 MBq-h/MBq | Kinetics value, Kidneys (5.0 nmol/mouse): 1.04E0 MBq-h/MBq | Kinetics value, Liver (5.0 nmol/mouse): 3.74E0 MBq-h/MBq | Kinetics value, Lung (5.0 nmol/mouse): 3.00E−1 MBq-h/MBq | Kinetics value, Spleen (5.0 nmol/mouse): 1.40E+0 MBq-h/MBq | Kinetics value, Stomach (5.0 nmol/mouse): 1.18E−1 MBq-h/MBq | Kinetics value, Tumor (5.0 nmol/mouse): 5.59E0 MBq-h/MBq | Organ doses, Blood (5.0 nmol/mouse): 9.32E01 mGy/MBq | Organ doses, Bone Marrow (5.0 nmol/mouse): 3.6E01 mGy/MBq | Organ doses, Heart (5.0 nmol/mouse): 2.10E01 mGy/MBq | Organ doses, Intestines (5.0 nmol/mouse): 2.22E01 mGy/MBq | Organ doses, Kidneys (5.0 nmol/mouse): 1.07E02 mGy/MBq | Organ doses, Liver (5.0 nmol/mouse): 1.00E02 mGy/MBq | Organ doses, Lung (5.0 nmol/mouse): 2.61E01 mGy/MBq | Organ doses, Spleen (5.0 nmol/mouse): 1.11E02 mGy/MBq | Organ doses, Stomach (5.0 nmol/mouse): 1.72E01 mGy/MBq | Organ doses, Tumor (5.0 nmol/mouse): 1.61E02 mGy/MBq | Kinetics value, Blood (10.0 nmol/mouse): 9.85E−1 MBq-h/MBq | Kinetics value, Bone Marrow (10.0 nmol/mouse): 2.92E−02 MBq-h/MBq | Kinetics value, Heart (10.0 nmol/mouse): 9.09E−2 MBq-h/MBq | Kinetics value, Intestines (10.0 nmol/mouse): 1.33E−1 MBq-h/MBq | Kinetics value, Kidneys (10.0 nmol/mouse): 4.86E−01 MBq-h/MBq | Kinetics value, Liver (10.0 nmol/mouse): 3.00E+0 MBq-h/MBq | Kinetics value, Lung (10.0 nmol/mouse): 2.40E−1 MBq-h/MBq | Kinetics value, Spleen (10.0 nmol/mouse): 1.30E+0 MBq-h/MBq | Kinetics value, Stomach (10.0 nmol/mouse): 8.87E−2 MBq-h/MBq | Organ doses, Blood (10.0 nmol/mouse): 1.09E02 mGy/MBq | Organ doses, Bone Marrow (10.0 nmol/mouse): 5.61E01 mGy/MBq | Organ doses, Heart (10.0 nmol/mouse): 1.97E01 mGy/MBq | Organ doses, Intestines (10.0 nmol/mouse): 1.89E01 mGy/MBq | Organ doses, Kidneys (10.0 nmol/mouse): 7.57E01 mGy/MBq | Organ doses, Liver (10.0 nmol/mouse): 9.11E01 mGy/MBq | Organ doses, Lung (10.0 nmol/mouse): 2.28E01 mGy/MBq | Organ doses, Spleen (10.0 nmol/mouse): 7.05E01 mGy/MBq | Organ doses, Stomach (10.0 nmol/mouse): 1.12E01 mGy/MBq | Organ doses, Tumor (10.0 nmol/mouse): 1.50E02 mGy/MBq
